## Apparent affinities of Ab-14 variants for a coronavirus HR2 peptide

Target peptide (SARS-CoV-2 spike, HR2 region): PDVDLGDISGINAS

Each scFv is VH, a 15-residue (Gly4Ser)3 linker, VL, as in the parent Ab-14, and differs from it in the CDRs of the light chain only.
VH: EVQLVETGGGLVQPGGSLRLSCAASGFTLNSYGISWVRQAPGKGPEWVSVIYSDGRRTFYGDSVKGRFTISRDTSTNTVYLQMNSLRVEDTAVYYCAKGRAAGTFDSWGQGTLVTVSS
VL: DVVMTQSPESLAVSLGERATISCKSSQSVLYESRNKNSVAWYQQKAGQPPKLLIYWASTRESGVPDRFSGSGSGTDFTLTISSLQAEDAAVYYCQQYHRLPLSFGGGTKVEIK

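The starting antibody came from a phage panning campaign against this peptide. Variants in AAYL50 differ from the parent at up to three CDR positions; double and triple changes were sampled at random. The assay is AlphaSeq: two haploid yeast populations carry antibody and antigen on their surface. The frequency of each diploid, read from paired DNA barcodes, reflects how well the two displayed proteins bind. Scores were corrected for input abundance and mapped to Kd with protein pairs of known affinity run in the same pool. Each pool was mated in three replicate cultures.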

The parent's light chain CDRs are KSSQSVLYESRNKNSVA, WASTRES, QQYHRLPLS; each variant's own CDRs replace them letter for letter. Affinities are written as log10 Kd with Kd in nM; a lower number is a better binder. Averages over replicates are reported, and they cover detected replicates only. A pair that was not seen in that replicate is written "ND"; this usually means weak binding, but a binder can also be missed. Empty control strains, which show no peptide, gave a signal in 18% of pairings with library AAYL50; the median was 4.19 and 95% of these signals were weaker than 2.99. No background was subtracted. The control count says in how many pairings with the empty strains this scFv gave a signal, with their mean in brackets.

| CDR-L1 | CDR-L2 | CDR-L3 | replicates, log10 nM | log10 Kd (nM), mean | signal with controls |
|---|---|---|---|---|---|
| KSSQSILYESRNKNSVA | WASTRES | QQYHRLPLN | 2.51 1.68 2.27 | 2.15 | 1/9 (3.31) |
| KSSQSVLYESRNKNCVA | WASTMES | QQYHALPLS | 3.33 ND ND | 3.33 | 1/9 (4.30) |
| KSSQSVLYESRNKNPVA | WASTREV | QQYHRLPLS | 2.34 2.28 2.37 | 2.33 | 2/9 (4.79) |
| KSSQSVLYESRPKNSVA | WKSTRES | QQYHREPLS | ND ND 5.35 | 5.35 | 1/9 (2.99) |
| KSSQSVLYESRNKNSVA | WASTREC | QLYHRLPMS | 2.60 2.73 3.26 | 2.86 | 5/9 (4.11) |
| KSSQSVLYESRNKASVA | WASTRES | QQYHLLPLN | ND ND ND | ND | 0/9 |
| KSSQSVLYESRNKSNVA | WASTRES | QQYHCLPLS | 4.17 ND ND | 4.17 | 0/9 |
| KSSQSVLYESRNKNSVA | WASTRWS | QQYHRWLLS | ND ND ND | ND | 0/9 |
| KSSQSVNYESRHKNSVA | WAVTRES | QQYHRLPLS | 2.04 1.73 2.49 | 2.09 | 0/9 |
| KSSVSVLYTSYNKNSVA | WASTRES | QQYHRLPLS | ND 4.52 ND | 4.52 | 3/9 (3.80) |
| KSSQSVLYEPRNKNSVV | WASTRES | QQYHRWPLS | ND ND ND | ND | 2/9 (2.77) |
| KSSQSVLYELRNKCSVA | WASTREI | QQYHRLPLS | 3.43 4.14 ND | 3.79 | 4/9 (4.25) |
| KSSHSVLYESRNKNSVA | YASTRES | LQYHRLPLS | ND ND ND | ND | 0/9 |
| KSSQSVLYYSRTKNSVD | WASTRES | QQYHRLPLS | ND ND ND | ND | 0/9 |
| KSSQSVLYESRNKNSVK | WASTRES | QQYHCLPLS | ND ND ND | ND | 1/9 (4.29) |
| KSSQSVLYESRNVNSRA | WASTRES | QQYHRLPCS | ND ND ND | ND | 0/9 |
| KSSQSVLPESNNKNSVA | WASTRES | QQYHRLPLT | 0.37 0.53 0.50 | 0.47 | 1/9 (3.81) |
| KSSQSMLYESRNKNSVA | WASTREH | QQCHRLPLS | 5.65 4.01 ND | 4.83 | 3/9 (3.21) |
| KSYQSVLYESRNKNSVA | QASTRES | FQYHRLPLS | 0.45 0.72 0.60 | 0.59 | 5/9 (5.68) |
| KSSQSWLYESRNKRSVA | WASTRES | QQYHSLPLS | 1.03 1.23 1.34 | 1.20 | 1/9 (3.19) |
| KSAQAVLYESRNKHSVA | WASTRES | QQYHRLPLS | 1.44 2.22 2.31 | 1.99 | 0/9 |
| KSSQSVAYESRNKNSVQ | WASTRTS | QQYHRLPLS | ND ND 3.98 | 3.98 | 1/9 (3.02) |
| KSSQSVLYESRNKNSTA | WASTRES | QQYHHAPLS | ND 4.51 4.94 | 4.73 | 3/9 (4.33) |
| KSMQSVLYEGDNKNSVA | WASTRES | QQYHRLPLS | 0.82 0.90 0.77 | 0.83 | 0/9 |
| KSSQSVLYESRNKNYVA | WASTRES | QQYHLEPLS | ND ND ND | ND | 0/9 |
| KSSQSVLYESRNKNSIA | WASTRES | QQYHRYPLS | ND ND ND | ND | 0/9 |
| KSSQSVLYFSRNKNSVA | WAHTRES | SQYHRLPLS | 3.82 ND 3.51 | 3.67 | 0/9 |
| KKSQSVLYESRNINSVI | WASTRES | QQYHRLPLS | ND ND ND | ND | 0/9 |
| KSSKSVLYESRNKNSQN | WASTRES | QQYHRLPLS | ND ND ND | ND | 0/9 |
| KSSQSVLYEPINKNAVA | WASTRES | QQYHRLPLS | 0.70 1.03 1.02 | 0.92 | 4/9 (4.77) |
| KSSQSVLYESRVKESVA | WISTRES | QQYHRLPLS | ND ND ND | ND | 1/9 (3.34) |
| KSSPSVLYESRNKNSVA | WPSVRES | QQYHRLPLS | ND ND 3.58 | 3.58 | 0/9 |
| KSSQSVLYESRNCNSVA | WAVTRQS | QQYHRLPLS | ND ND ND | ND | 0/9 |
| MSSNSVLYLSRNKNSVA | WASTRES | QQYHRLPLS | 4.66 3.38 4.29 | 4.11 | 4/9 (4.36) |

The closing 2 entries, repeated:

CDR-L1	CDR-L2	CDR-L3	replicates, log10 nM	log10 Kd (nM), mean	signal with controls
KSSQSVLYESRNCNSVA	WAVTRQS	QQYHRLPLS	ND ND ND	ND	0/9
MSSNSVLYLSRNKNSVA	WASTRES	QQYHRLPLS	4.66 3.38 4.29	4.11	4/9 (4.36)

Source: Engelhart et al. 2022 (doi:10.1038/s41597-022-01779-4), MIT Lincoln Laboratory and A-Alpha Bio; data file from the FLAb repository.